Laboratory results as given in BindingDB's records for doi:10.1016/0024-3205(85)90028-1 (Universit&Eacute, 1985).

Sequences of proteins named here, by UniProt entry; tags and fusion partners are left off.
UniProt P61169, whole entry: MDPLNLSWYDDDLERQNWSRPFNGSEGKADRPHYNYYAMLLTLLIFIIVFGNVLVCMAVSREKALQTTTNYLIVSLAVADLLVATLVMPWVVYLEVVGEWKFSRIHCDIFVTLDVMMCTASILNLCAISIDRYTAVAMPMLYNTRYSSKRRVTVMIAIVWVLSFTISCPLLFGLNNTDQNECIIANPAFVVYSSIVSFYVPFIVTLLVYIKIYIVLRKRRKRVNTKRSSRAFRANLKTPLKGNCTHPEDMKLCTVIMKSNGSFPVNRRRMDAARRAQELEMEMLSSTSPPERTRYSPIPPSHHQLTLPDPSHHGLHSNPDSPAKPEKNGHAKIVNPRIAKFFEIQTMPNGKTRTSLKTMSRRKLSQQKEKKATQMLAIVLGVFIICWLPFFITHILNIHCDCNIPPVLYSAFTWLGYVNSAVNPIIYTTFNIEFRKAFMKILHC

Target: D(2) dopamine receptor (Rattus norvegicus, UniProt P61169)

In the case of `NCCc1c[nH]c2ccc(O)cc12` [[3H]-5-HT], the Ki is reported as > 10 µM.
